Assay results reported in article PMC6553708 (PLoS ONE, 2019).
Several values for one entry are separate records, joined by “and”; a condition that tells them apart may be missing. Equal values may be shown once.

The chains behind the UniProt entries cited, without tags or fusion partners. Where a name states a change or a piece, a line headed by the entry shows the natural chain unless it says otherwise.
UniProt P35372, whole entry: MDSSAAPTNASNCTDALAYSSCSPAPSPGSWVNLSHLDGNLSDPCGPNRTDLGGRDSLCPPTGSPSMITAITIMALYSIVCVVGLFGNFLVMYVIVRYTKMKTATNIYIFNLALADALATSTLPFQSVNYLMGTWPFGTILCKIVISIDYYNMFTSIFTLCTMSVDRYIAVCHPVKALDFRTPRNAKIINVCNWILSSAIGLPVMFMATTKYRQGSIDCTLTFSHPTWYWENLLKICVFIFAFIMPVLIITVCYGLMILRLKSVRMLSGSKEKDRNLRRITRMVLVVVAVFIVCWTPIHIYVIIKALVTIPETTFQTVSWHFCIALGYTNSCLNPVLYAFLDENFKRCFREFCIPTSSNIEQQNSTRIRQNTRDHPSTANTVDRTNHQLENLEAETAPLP
UniProt P41145: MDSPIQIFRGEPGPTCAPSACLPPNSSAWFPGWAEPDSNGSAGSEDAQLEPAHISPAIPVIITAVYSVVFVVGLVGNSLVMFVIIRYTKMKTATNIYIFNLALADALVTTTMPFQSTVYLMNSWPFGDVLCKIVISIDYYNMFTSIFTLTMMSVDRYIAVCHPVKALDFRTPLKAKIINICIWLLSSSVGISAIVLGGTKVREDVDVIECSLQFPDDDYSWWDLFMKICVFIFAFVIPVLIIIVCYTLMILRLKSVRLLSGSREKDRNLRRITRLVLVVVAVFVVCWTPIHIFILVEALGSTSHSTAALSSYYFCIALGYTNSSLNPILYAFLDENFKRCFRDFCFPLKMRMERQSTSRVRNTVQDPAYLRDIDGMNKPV

Assays:
Mu Opioid Receptor (MOR) [1] = target: T1, Mu Opioid Receptor (MOR) (Homo sapiens, UniProt P35372); conditions: read-out: Target Binding Affinity Determined by Competition Radioligand Binding–KI, MOR
Mu Opioid Receptor (MOR) [2] = target: T1, Mu Opioid Receptor (MOR)
MOR = conditions: cited from earlier work
[3] = target: T2, Kappa Opioid Receptor (KOR) (Homo sapiens, UniProt P41145); format: biochemical; parameters: membranes used
[4] = target: T2, Kappa Opioid Receptor (KOR)
[5] = target: T2, Kappa Opioid Receptor (KOR); assay: biochemical; conditions: KOR EC50 (35S-GTPγS)

## CN(C)C[C@H]1CCCC[C@]1(O)c1cccc(O)c1
Mu Opioid Receptor (MOR) [1]
  Ki: 1300 ± 290 nM
Mu Opioid Receptor (MOR) [2]
  MOR EMAX (35S-GTPγS): 97 ± 2%
Mu Opioid Receptor (MOR) [2]; read-out: MOR EC50 (35S-GTPγS)
  EC50: 360 ± 110 nM

## CCC(=O)C(CC(C)N(C)C)(c1ccccc1)c1ccccc1 (stereo not shown) [methadone]
MOR
  operational efficacy τ in vitro: 18.2

## COc1ccc2c3c1O[C@H]1C(=O)CC[C@H]4[C@@H](C2)N(C)CC[C@]314 [Hydrocodone]
[3]
  KOR antagonist activity (in words): no KOR antagonist activity
[4]
  Potential new finding: activity at KOR (in words): KOR partial agonist; CB1 partial agonist; σ1R binding
[5]
  EC50: 236 nM and 240 nM
